How the values were obtained:
[1] = molecular target: A11_(2-196), full-length annexin A11 proline-rich domain, GB1 tag cleaved (human) (UniProt P50995)
[2] = molecular target: GB1-tagged A11_(2-196)^G175R (human) (UniProt P50995)
[3] = molecular target: S100A6 (calcyclin) dimer (human) (UniProt P06703); experiment: AUC; sedimentation velocity, 50,000 rpm, 20 °C, absorbance at 280 nm; individual constructs at ~20 and ~50 μM and mixtures of A11-PRD constructs with S100A6

## S100A6 (calcyclin) dimer (from UniProt P06703 1-90) (natural protein)
[1]
  loss of ThT signal of A11 2-196 fibrils (50 μM, stationary phase, ~14 h) after addition of 100 μM S100A6 dimer; half-time t1/2; TEM showed a complete lack of fibrils: 3.5 h
[2]
  loss of ThT signal of fibrils of the G175R variant (50 μM, GB1-cleaved protein) after addition of 100 μM S100A6 dimer; half-time t1/2; residual fibrillar aggregates by TEM: 13 h
[3]
  stoichiometry N: 2

Reference: PMC10401653
